{"sequences": {"note": "Amino acid sequences for entries named in this document (tags omitted).", "UniProt P21397, whole entry": "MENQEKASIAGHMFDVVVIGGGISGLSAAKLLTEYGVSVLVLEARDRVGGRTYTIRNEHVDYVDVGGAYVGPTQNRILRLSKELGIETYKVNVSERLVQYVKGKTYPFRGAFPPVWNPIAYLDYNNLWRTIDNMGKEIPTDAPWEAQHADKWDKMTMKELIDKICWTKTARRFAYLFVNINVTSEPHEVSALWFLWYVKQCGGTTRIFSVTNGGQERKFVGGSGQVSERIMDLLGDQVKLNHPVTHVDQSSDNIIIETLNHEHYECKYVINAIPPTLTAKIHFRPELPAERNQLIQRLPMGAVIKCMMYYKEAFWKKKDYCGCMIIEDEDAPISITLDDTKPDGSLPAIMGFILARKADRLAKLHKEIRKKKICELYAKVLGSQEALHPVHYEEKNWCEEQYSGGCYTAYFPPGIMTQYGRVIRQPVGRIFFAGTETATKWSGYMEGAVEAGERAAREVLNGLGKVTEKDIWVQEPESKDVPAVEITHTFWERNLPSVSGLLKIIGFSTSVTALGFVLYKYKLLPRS", "UniProt P27338, whole entry": "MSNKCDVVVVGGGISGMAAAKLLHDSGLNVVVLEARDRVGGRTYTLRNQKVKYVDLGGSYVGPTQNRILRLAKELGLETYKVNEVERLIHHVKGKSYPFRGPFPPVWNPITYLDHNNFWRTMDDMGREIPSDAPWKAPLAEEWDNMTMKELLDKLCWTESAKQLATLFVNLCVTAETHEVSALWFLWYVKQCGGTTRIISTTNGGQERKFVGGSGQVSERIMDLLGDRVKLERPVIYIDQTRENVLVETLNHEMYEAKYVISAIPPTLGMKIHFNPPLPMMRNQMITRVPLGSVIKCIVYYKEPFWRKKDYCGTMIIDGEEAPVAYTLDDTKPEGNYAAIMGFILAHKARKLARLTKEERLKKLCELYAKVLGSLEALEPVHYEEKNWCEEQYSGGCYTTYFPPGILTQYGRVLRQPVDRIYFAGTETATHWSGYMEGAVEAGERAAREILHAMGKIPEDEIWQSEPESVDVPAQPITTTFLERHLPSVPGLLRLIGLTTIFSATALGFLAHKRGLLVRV"}, "source": "BindingDB's records for doi:10.1021/cb500018s", "about": "(Johns Hopkins University, 2014)", "key": {"[1]": {"molecular_target": "Amine oxidase [flavin-containing] A (Homo sapiens, UniProt P21397)", "assay": "MAO-A/B Activity and Inhibition Assay", "conditions": "pH 7.5", "procedure": "(§1) Reactions (100 µL) were initiated by the addition of 2 µL MAO-A/B (final concentrations were 100-200 nM and 0.837 µM for MAO-A and MAO-B, respectively). The reaction mixtures contained 50 mM HEPES (pH 7.5), 0.1 mM 4-aminoantipyrine, 1 mM 3,5-dichloro-2-hydroxybenzenesulfonic acid, 0.04 mg/mL horseradish peroxidase, and appropriate concentration of buffered substrate (tyramine). Absorbance changes were measured at 515 nm."}, "[2]": {"molecular_target": "Amine oxidase [flavin-containing] B (Homo sapiens, UniProt P27338)", "assay": "MAO-A/B Activity and Inhibition Assay", "conditions": "pH 7.5", "procedure": "as §1"}}}
{"smiles": "NNCCc1ccccc1", "values": [{"measurement": "Ki", "setting": "[1]", "value": 820, "unit": "nM"}, {"measurement": "Ki", "setting": "[2]", "value": 3900, "unit": "nM"}]}
